Laboratory results: PubChem BioAssay (NCI)
The entries are a selection whose mix differs from that of the whole data set.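 Interpretation: 100, growth as untreated; towards 0, rising growth inhibition; 0, no net growth; 0 to -100, cell death. Compounds scoring below 10 were considered active.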 Activity calls are given as the source filed them.

What was measured:
Assay in all cases: NCI-60 one-dose screen, 48 h (100 = growth as untreated, 0 = no growth, -100 = all killed)
Conditions in all cases: 10 µM unless noted
MOLT-4 leukemia = system: MOLT-4 leukemia
SR leukemia = system: SR leukemia
RPMI-8226 leukemia = system: RPMI-8226 leukemia
OVCAR-8 ovarian = system: OVCAR-8 ovarian
OVCAR-5 ovarian = system: OVCAR-5 ovarian
OVCAR-4 ovarian = system: OVCAR-4 ovarian
SK-OV-3 ovarian = system: SK-OV-3 ovarian
IGROV1 ovarian = system: IGROV1 ovarian
OVCAR-3 ovarian = system: OVCAR-3 ovarian
NCI/ADR-RES ovarian = system: NCI/ADR-RES ovarian
T-47D breast = system: T-47D breast
BT-549 breast = system: BT-549 breast
MDA-MB-435 melanoma = system: MDA-MB-435 melanoma
SW-620 colon = system: SW-620 colon
MCF7 breast = system: MCF7 breast
HCT-116 colon = system: HCT-116 colon
HCC-2998 colon = system: HCC-2998 colon
KM12 colon = system: KM12 colon
HS 578T breast = system: HS 578T breast

Measured: growth

NP(=O)(N(CCCl)CCCl)N1CC1 (centres undefined)
inactive: MOLT-4 leukemia 81.1% | SR leukemia 84.2% | RPMI-8226 leukemia 96.5% | OVCAR-8 ovarian 101% | OVCAR-5 ovarian 104% | OVCAR-4 ovarian 105% | SK-OV-3 ovarian 109% | IGROV1 ovarian 98.5% | OVCAR-3 ovarian 106% | NCI/ADR-RES ovarian 99.6% | T-47D breast 93.5% | BT-549 breast 96.1% | MDA-MB-435 melanoma 106% | SW-620 colon 103% | MCF7 breast 95.5% | HCT-116 colon 92.7% | HCC-2998 colon 102% | KM12 colon 113%

CC(=O)NC(C)C(=O)N(CC(C)Cl)CC(C)Cl (centres undefined)
inactive: MOLT-4 leukemia 96.5% | SR leukemia 94.9% | RPMI-8226 leukemia 93.6% | OVCAR-8 ovarian 94.2% | OVCAR-5 ovarian 94.8% | OVCAR-4 ovarian 77.2% | SK-OV-3 ovarian 107% | IGROV1 ovarian 108% | OVCAR-3 ovarian 106% | T-47D breast 89% | BT-549 breast 107% | MDA-MB-435 melanoma 101% | SW-620 colon 103% | MCF7 breast 92.5% | HCT-116 colon 99.5% | HCC-2998 colon 107% | KM12 colon 110%

CN(C)P(=O)(N(C)C)n1c(Nc2ccccc2)nnc1-c1ccccc1
inactive: MOLT-4 leukemia 93.9% | SR leukemia 97.7% | RPMI-8226 leukemia 96.4% | OVCAR-5 ovarian 98.4% | OVCAR-4 ovarian 91.9% | SK-OV-3 ovarian 105% | IGROV1 ovarian 109% | OVCAR-3 ovarian 104% | HS 578T breast 99.7% | NCI/ADR-RES ovarian 99.7% | T-47D breast 86% | BT-549 breast 100% | MDA-MB-435 melanoma 108% | SW-620 colon 107% | MCF7 breast 99.2% | HCT-116 colon 85.2% | HCC-2998 colon 96.7% | KM12 colon 88.3%

O=[As](O)(c1ccccc1)c1ccc(O)cc1
inactive: MOLT-4 leukemia 102% | SR leukemia 100% | RPMI-8226 leukemia 81.6% | OVCAR-8 ovarian 96.8% | OVCAR-5 ovarian 80.9% | OVCAR-4 ovarian 106% | SK-OV-3 ovarian 102% | OVCAR-3 ovarian 110% | HS 578T breast 113% | NCI/ADR-RES ovarian 100% | T-47D breast 97.9% | BT-549 breast 118% | MDA-MB-435 melanoma 97.7% | SW-620 colon 111% | MCF7 breast 71.3% | HCT-116 colon 95.5% | HCC-2998 colon 103% | KM12 colon 110%

NC(=O)c1[nH]cnc1/N=N\N(CCCl)CCCl
inactive: MOLT-4 leukemia 105% | SR leukemia 122% | RPMI-8226 leukemia 111% | OVCAR-8 ovarian 109% | OVCAR-5 ovarian 91.4% | OVCAR-4 ovarian 99.7% | SK-OV-3 ovarian 102% | OVCAR-3 ovarian 123% | HS 578T breast 120% | NCI/ADR-RES ovarian 109% | T-47D breast 109% | BT-549 breast 240% | MDA-MB-435 melanoma 125% | SW-620 colon 107% | MCF7 breast 109% | HCT-116 colon 104% | HCC-2998 colon 107% | KM12 colon 115%

O=C1NC(c2ccccc2)(c2ccccc2)C(=O)N1P(=O)(Oc1ccccc1)Oc1ccccc1
inactive: MOLT-4 leukemia 93% | SR leukemia 90.4% | RPMI-8226 leukemia 91.2% | OVCAR-8 ovarian 101% | OVCAR-5 ovarian 100% | OVCAR-4 ovarian 100% | SK-OV-3 ovarian 104% | IGROV1 ovarian 104% | OVCAR-3 ovarian 112% | NCI/ADR-RES ovarian 102% | T-47D breast 91.8% | BT-549 breast 101% | MDA-MB-435 melanoma 99.8% | SW-620 colon 103% | MCF7 breast 86.4% | HCT-116 colon 104% | HCC-2998 colon 107% | KM12 colon 97%

CCP(Cl)(Cl)(Cl)CC
inactive: MOLT-4 leukemia 94.5% | SR leukemia 86.3% | RPMI-8226 leukemia 95.9% | OVCAR-8 ovarian 97.1% | OVCAR-5 ovarian 96.5% | OVCAR-4 ovarian 91.2% | SK-OV-3 ovarian 95.2% | IGROV1 ovarian 106% | OVCAR-3 ovarian 104% | NCI/ADR-RES ovarian 102% | T-47D breast 88.9% | BT-549 breast 93% | MDA-MB-435 melanoma 87.4% | SW-620 colon 102% | MCF7 breast 86.4% | HCT-116 colon 101% | HCC-2998 colon 101% | KM12 colon 104%

O=C(O)c1ccccc1[As](=O)(O)O
inactive: MOLT-4 leukemia 72.8% | RPMI-8226 leukemia 75% | OVCAR-8 ovarian 111% | OVCAR-5 ovarian 134% | OVCAR-4 ovarian 104% | SK-OV-3 ovarian 95.1% | IGROV1 ovarian 99.1% | OVCAR-3 ovarian 91.8% | HS 578T breast 88.5% | NCI/ADR-RES ovarian 136% | T-47D breast 95.7% | BT-549 breast 93.9% | MDA-MB-435 melanoma 92.4% | SW-620 colon 108% | MCF7 breast 128% | HCT-116 colon 102% | KM12 colon 101%

Nc1cccc2c([As](=O)(O)O)cccc12
inactive: MOLT-4 leukemia 74% | RPMI-8226 leukemia 122% | OVCAR-8 ovarian 104% | OVCAR-5 ovarian 98.3% | OVCAR-4 ovarian 103% | SK-OV-3 ovarian 111% | IGROV1 ovarian 109% | OVCAR-3 ovarian 112% | NCI/ADR-RES ovarian 102% | T-47D breast 103% | BT-549 breast 113% | MDA-MB-435 melanoma 110% | SW-620 colon 112% | MCF7 breast 102% | HCT-116 colon 96.2% | HCC-2998 colon 126% | KM12 colon 111%
